We go through one variant from IntAct's records for PubMed 16525503.

The labels stand for the following.
B1: Ataxin-3 (Homo sapiens), P54252-1 (parent)
chain: MESIFHEKQEGSLCAQHCLNNLLQGEYFSPVELSSIAHQLDEEERMRMAEGGVTSEDYRTFLQQPSGNMDDSGFFSIQVISNALKVWGLELILFNSPEYQRLRIDPINERSFICNYKEHWFTVRKLGKQWFNLNSLLTGPELISDTYLALFLAQLQQEGYSIFVVKGDLPDCEADQLLQMIRVQQMHRPKLIGEELAQLKEQRVHKTDLERVLEANDGSGMLDEDEEDLQRALALSRQEIDMEDEEADLRRAIQLSMQGSSRNISQDMTQTSGTNLTSEELRKRREAYFEKQQQKQQQQQQQQQQGDLSGQSSHPCERPATSSGALGSDLGKACSPFIMFATFTLYLTYELHVIFALHYSSFPL

In the test the parent is B1. As to conditions: with tera_human VCP.
In the case of MESIFHEKQEGSLCAQHCLNNLLQGEYFSPVELSSIAHQLDEEERMRMAEGGVTSEDYRTFLQQPSGNMDDSGFFSIQVISNALKVWGLELILFNSPEYQRLRIDPINERSFICNYKEHWFTVRKLGKQWFNLNSLLTGPELISDTYLALFLAQLQQEGYSIFVVKGDLPDCEADQLLQMIRVQQMHRPKLIGEELAQLKEQRVHKTDLERVLEANDGSGMLDEDEEDLQRALALSRQEIDMEDEEADLRRAIQLSMQGSSRNISQDMTQTSGTNLTSEELHNHHEAYFEKQQQKQQQQQQQQQQGDLSGQSSHPCERPATSSGALGSDLGKACSPFIMFATFTLYLTYELHVIFALHYSSFPL [R282H;K283N;R284H;R285H], the “effect of a mutation on the interaction” value is “disrupting interaction”.
